# This is a selection; strong and weak results do not stand in their true shares. Calls of active or inactive are those of the source. Rule for the calls: active = hit-call score of the fitted dose curve at least 0.9, where 1 is the maximum; inactive = score below 0.9.
# Test: ATG_NFI_CIS: Attagene CIS-FACTORIAL HepG2 Assay for human Nuclear Factor I (NFI) (AID 2282989)
# Conditions: HepG2 cis-regulatory reporter, NFI response element transcription; actives raise or lower the signal
# Experimental: ATG_CIS is a cell-based, multiplexed-readout assay that uses HepG2, a human liver cell line, with measurements taken at 24 hours after chemical dosing in a 24-well plate.ATG_NFI_CIS is one of 52 assay component(s) measured or calculated from the ATG_CIS assay. It is designed to make measurements of mRNA induction, a form of inducible reporter, as detected with fluorescence intensity signals by Reverse transcription polymerase chain reaction (RT-PCR) and Capillary electrophoresis technology.Data from the assay component ATG_NFI_CIS was analyzed into 1 assay endpoint. This assay endpoint, ATG_NFI_CIS, was analyzed with bidirectional fitting relative to DMSO as the negative control and baseline of activity. Using a type of inducible reporter, measures of mRNA for gain or loss-of-signal activity can be used to understand the reporter gene at the transcription factor-level as they relate to the gene NFIA. Furthermore, this assay endpoint can be referred to as a primary readout, because this assay has produced multiple assay endpoints where this one serves a reporter gene function. To generalize the intended target to other relatable targets, this assay endpoint is annotated to the dna binding intended target family, where the subfamily is nuclear factor I.
# Human liver HepG2 cells are transiently transfected with multiple reporter transcription units (MRTUs) in 6-well plates using FuGene 6 reagent (Roche; 3 ml FuGene/1 mg DNA). The MRTU constructs are regulated by a cis-regulating element (promoter). […] A major difference between the CIS and TRANS system is that in CIS activities of endogenous TFs are measured, whereas the TRANS assay evaluates changes in activities of exogenous, chimeric NR-Gal4 proteins. […] At the end of 24 hour incubation, total RNA was isolated using TriZol reagent (Invitrogen). The isolated RNA is then reverse-transcribed using oligo(dT) primer and Mo-MLV reverse transcriptase (Invitrogen) with DNAse I (Ambion) treatment for 30 min. The one-tenth of the produced cDNA was amplified by PCR using Taq DNA polymerase (Invitrogen) and two reporter sequence-specific primers. The PCR products were fluorescently labeled by primer extension with 6-arboxyfluorescein (6-FAM) 5'-labeled reporter sequence-specific primer (2 min at 95 C, 20 s at 68 C and 10 min at 72 C) and these products were digested with 5U of HpaI (New England Biolabs) for 2h at 37 C. The fragments were purified using Qiaquick PCR columns (Qiagen), analyzed on an ABI 3130xL genetic analyzer (Applied Biosystems) with peak positions identified by using a set of X-rhodamine (ROX)-labeled MapMarker1000 molecular weight standards (BioVentures). The raw capillary electrophoresis data was processed using Attagraph software (Attagene).
row,SMILES,outcome
1,Cc1ccc([N+](=O)[O-])c([N+](=O)[O-])c1,inactive
2,N#CBr,inactive
3,COP(C)(=O)OC,inactive
4,CC(C)OP(C)(=O)OC(C)C,inactive
5,COc1ccc([N+](=O)[O-])cc1[N+](=O)[O-],inactive
6,O=[N+]([O-])c1cccc([N+](=O)[O-])c1,inactive
7,CC(C)N(CCO)C(C)C,inactive
8,O=[N+]([O-])OCC(CO[N+](=O)[O-])(CO[N+](=O)[O-])CO[N+](=O)[O-],inactive
9,Cc1c([N+](=O)[O-])cccc1[N+](=O)[O-],inactive
10,Cc1ccc([N+](=O)[O-])cc1[N+](=O)[O-],inactive
11,Cc1cccc([N+](=O)[O-])c1[N+](=O)[O-],inactive
12,CN(C)CCCl,inactive

# Reference: PubChem BioAssay (EPA / NIEHS)
